The text below walks through data of ChEMBL document CHEMBL1938272 (Bioorg Med Chem, 2012).

Protein sequences, listed by entry. Tags and fused reporters are not part of them.
UniProt Q64669, whole entry: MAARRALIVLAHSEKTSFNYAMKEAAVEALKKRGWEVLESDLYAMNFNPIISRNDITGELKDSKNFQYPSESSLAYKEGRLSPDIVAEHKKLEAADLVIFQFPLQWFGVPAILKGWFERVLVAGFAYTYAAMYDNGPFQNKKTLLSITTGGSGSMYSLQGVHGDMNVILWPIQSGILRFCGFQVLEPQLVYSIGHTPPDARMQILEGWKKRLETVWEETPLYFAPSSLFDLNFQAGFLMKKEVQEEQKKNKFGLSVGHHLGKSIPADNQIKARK

Molecules are shown by their SMILES.

Assay [1] concerns the target NAD(P)H dehydrogenase [quinone] 1 (Mus musculus) (UniProt Q64669). The assay can be described thus: Induction of QR1 activity in mouse TAOc1 mutant Hepa cells using MTT as substrate assessed as induction ratio by spectrophotometry relative to control. The class given is cell-based.
For assay [2] the target is unchanged. The assay can be described thus: Induction of QR1 activity in mouse BPrc1 cells using MTT as substrate assessed as induction ratio by spectrophotometry relative to control. Format: cell-based.
Assay [3] can be described thus: Ratio of trans-resveratrol IC50 to compound IC50 for NF-kappaB.

For the molecule `Brc1ccccc1-c1nsc(-c2ccccc2Br)n1`, the results for the Ratio in assay [1] and in assay [2] were 1.6 and 0.5, respectively.

For `Fc1cccc(-c2nsc(-c3cccc(F)c3)n2)c1`, the Ratio was determined as 1.4 in assay [1] and 0.9 in assay [2].

For the molecule `c1ccc(-c2nsc(-c3ccccc3)n2)cc1`, the Ratio in assay [1] turned out to be 2.2; in assay [2], 2.

Turning to `Cc1cc(Br)ccc1-c1nsc(-c2ccc(Br)cc2C)n1`, the values for the Ratio in assay [1] and in assay [2] were 1.7 and 1.2, respectively.

In the case of `Fc1ccc(-c2nsc(-c3ccc(F)cc3)n2)cc1`, the Ratio in assay [1] worked out at 1.1; in assay [2] it was 0.6.

Consider `Oc1cccc(-c2nsc(-c3cccc(O)c3)n2)c1`, for which the Ratio in assay [1] was 1.2; in assay [2] it was 1.4.

`Clc1ccc(-c2nsc(-c3ccc(Cl)cc3Cl)n2)c(Cl)c1`: the Ratio came out at 1.2 in assay [1] and 1.4 in assay [2].

In the case of `Cc1cccc(-c2nsc(-c3cccc(C)c3)n2)c1`, the Ratio in assay [1] came to 0.8; in assay [2], 0.6. The Ratio IC50 in assay [3] turned out to be 1.

Consider `Clc1ccc(Cl)c(-c2nsc(-c3cc(Cl)ccc3Cl)n2)c1`, for which the Ratio worked out at 2.2 in assay [1] and 2.4 in assay [2].

For `c1ccc2cc(-c3nsc(-c4ccc5ccccc5c4)n3)ccc2c1`, the Ratio in assay [1] and in assay [2] was 0.9 each time.

As to `Ic1ccccc1-c1nsc(-c2ccccc2I)n1`, the Ratio was found to be 4 in assay [1] and 3.9 in assay [2].

Take `FC(F)(F)c1ccccc1-c1nsc(-c2ccccc2C(F)(F)F)n1`: the Ratio in assay [1] was 0.8; in assay [2] it was 0.7.

As for `Brc1ccc(-c2nsc(-c3ccc(Br)cc3)n2)cc1`, the figures for the Ratio in assay [1] and in assay [2] were 1.1 and 0.9, respectively.

In the case of `Fc1ccccc1-c1nsc(-c2ccccc2F)n1`, the Ratio was found to be 1 in assay [1] and 1.7 in assay [2].

As for `Clc1ccc(-c2nsc(-c3ccc(Cl)cc3)n2)cc1`, the Ratio in assay [1] came out at 1; in assay [2], 0.7.

With `Clc1ccccc1-c1nsc(-c2ccccc2Cl)n1`, the Ratio was 2 in assay [1] and 2.8 in assay [2].

Turning to `FC(F)(F)c1ccc(-c2nsc(-c3ccc(C(F)(F)F)cc3)n2)cc1`, the Ratio in assay [1] came to 1.2; in assay [2] it was 0.8.
